Membrane permeability of cyclic peptides

Data: CycPeptMPDB; original report Furukawa et al. 2016, doi:10.1021/acs.jmedchem.6b01246.

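Lipid, pH, incubation time, direction and concentration are not recorded in the data file. The list need not hold all peptides of the study. Entries at the database's floor value (log10 P of -10) are not listed.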

PAMPA measures passive passage through an artificial lipid membrane.
Permeability is in 10^-6 cm/s, converted from the database's log10 values; higher is more permeable.

The entry for CCCCCN1CC(=O)N[C@H](CC(C)C)C(=O)N[C@@H](CCCC)C(=O)N2CCC[C@H]2C(=O)N(CCCOC(C)C)CC(=O)N[C@H](C)C1=O lists PAMPA 0.66 × 10^-6 cm/s.
The entry for CCCCCN1CC(=O)N(C)[C@@H](CC(C)C)C(=O)N[C@@H](CCCC)C(=O)N2CCC[C@H]2C(=O)N(CC)CC(=O)N[C@@H](Cc2ccccc2)C1=O lists PAMPA 13 × 10^-6 cm/s.
The entry for CCCC[C@@H]1NC(=O)[C@H](CC(C)C)N(C)C(=O)CN(CC2CCCCC2)C(=O)[C@H](C)NC(=O)CN(Cc2ccc3c(c2)OCO3)C(=O)[C@@H]2CCCN2C1=O lists PAMPA 12 × 10^-6 cm/s.
The entry for CCCC[C@@H]1NC(=O)[C@H](CC(C)C)NC(=O)CN(CC2CCCCC2)C(=O)[C@H](Cc2ccccc2)NC(=O)CN(CC)C(=O)[C@H]2CCCN2C1=O lists PAMPA 11 × 10^-6 cm/s.
The entry for CCCC[C@@H]1NC(=O)[C@H](CC(C)C)N(C)C(=O)CN(CC2CCOCC2)C(=O)[C@@H](Cc2ccccc2)NC(=O)CN(CCCOC(C)C)C(=O)[C@H]2CCCN2C1=O lists PAMPA 0.3 × 10^-6 cm/s.
The entry for CCCC[C@@H]1NC(=O)[C@H](CC(C)C)NC(=O)CN(CC2CCCCC2)C(=O)[C@H](C)NC(=O)CN(CC)C(=O)[C@H]2CCCN2C1=O lists PAMPA 0.78 × 10^-6 cm/s.